ChEMBL document CHEMBL1147123, “Lipoxygenase inhibitory constituents of the fruits of noni (Morinda citrifolia) collected in Tahiti” (J Nat Prod, 2007)
pIC50: −log10 of the molar value.

Biological target: T1, Polyunsaturated fatty acid lipoxygenase ALOX15 (Oryctolagus cuniculus, UniProt P12530)
T1 sequence (P12530 whole entry): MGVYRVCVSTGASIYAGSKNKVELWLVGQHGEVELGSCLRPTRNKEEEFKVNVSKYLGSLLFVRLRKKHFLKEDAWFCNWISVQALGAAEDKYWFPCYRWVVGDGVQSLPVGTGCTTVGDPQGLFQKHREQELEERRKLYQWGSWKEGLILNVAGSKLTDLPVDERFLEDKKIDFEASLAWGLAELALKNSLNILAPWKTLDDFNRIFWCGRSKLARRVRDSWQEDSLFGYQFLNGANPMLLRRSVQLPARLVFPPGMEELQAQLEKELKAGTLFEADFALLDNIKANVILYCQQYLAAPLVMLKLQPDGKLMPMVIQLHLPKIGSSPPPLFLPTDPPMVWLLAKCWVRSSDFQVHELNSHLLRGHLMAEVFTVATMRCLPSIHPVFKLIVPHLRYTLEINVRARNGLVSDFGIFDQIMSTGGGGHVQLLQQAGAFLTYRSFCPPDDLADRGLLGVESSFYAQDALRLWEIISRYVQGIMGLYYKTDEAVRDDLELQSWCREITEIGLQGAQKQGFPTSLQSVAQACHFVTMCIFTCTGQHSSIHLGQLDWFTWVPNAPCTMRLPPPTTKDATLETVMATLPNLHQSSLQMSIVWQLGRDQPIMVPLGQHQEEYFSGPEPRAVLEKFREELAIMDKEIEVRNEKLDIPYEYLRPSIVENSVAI
Assay: Inhibition of 15LOX in rabbit reticulocytes by spectrophotometric assay

pIC50: 5.95
SMILES: c1ccc2c(c1)SCc1c-2[nH]c2ccccc12
